According to patent publication US20070161060:

B1: HA-tagged PIPKIγ661 Ser645Phe (protein)
chain: MELEVPDEAESAEAGAVPSEAAWAAESGAAAGLAQKKAAPTEVLSMTAQPGPGHGKKLGHRGVDASGETTYKKTTSSTLKGAIQLGIGYTVGHLSSKPERDVLMQDFYVVESIFFPSEGSNLTPAHHFQDFRFKTYAPVAFRYFRELFGIRPDDYLYSLCNEPLIELSNPGASGSLFYVTSDDEFIIKTVMHKEAEFLQKLLPGYYMNLNQNPRTLLPKFYGLYCVQSGGKNIRVVVMNNILPRVVKMHLKFDLKGSTYKRRASKKEKEKSFPTYKDLDFMQDMPEGLLLDADTFSALVKTLQRDCLVLESFKIMDYSLLLGVHNIDQHERERQAQGAQSTSDEKRPVGQKALYSTAMESIQGGAARGEAIESDDTMGGIPAVNGRGERLLLHIGIIDILQSYRFIKKLEHTWKALVHDGDTVSVHRPSFYAERFFKFMSNTVFRKNSSLKSSPSKKGRGGALLAVKPLGPTAAFSASQIPSEREEAQYDLRGARSYPTLEDEGRPDLLPCTPPSFEEATTASIATTLSSTSLSIPERSPSETSEQPRYRRRTQSSGQDGRPQEEPPAEEDLQQITVQVEPACSVEIVVPKEEDAGVEASPAGASAAVEVETASQASDEEGAPASQASDEEDAPATDIYFPTDERSWVYFPLHYSAQAPPA
B2: kinase dead PIPKIγ635 (protein)
chain: MELEVPDEAESAEAGAVPSEAAWAAESGAAAGLAQKKAAPTEVLSMTAQPGPGHGKKLGHRGVDASGETTYKKTTSSTLKGAIQLGIGYTVGHLSSKPERDVLMQDFYVVESIFFPSEGSNLTPAHHFQDFRFKTYAPVAFRYFRELFGIRPDDYLYSLCNEPLIELSNPGASGSLFYVTSDDEFIIKTVMHKEAEFLQKLLPGYYMNLNQNPRTLLPKFYGLYCVQSGGKNIRVVVMNNILPRVVKMHLKFDLKGSTYKRRASKKEKEKSFPTYKDLDFMQDMPEGLLLDADTFSALVKTLQRDCLVLESFKIMDYSLLLGVHNIDQHERERQAQGAQSTSDEKRPVGQKALYSTAMESIQGGAARGEAIESDDTMGGIPAVNGRGERLLLHIGIIDILQSYRFIKKLEHTWKALVHDGDTVSVHRPSFYAERFFKFMSNTVFRKNSSLKSSPSKKGRGGALLAVKPLGPTAAFSASQIPSEREEAQYDLRGARSYPTLEDEGRPDLLPCTPPSFEEATTASIATTLSSTSLSIPERSPSETSEQPRYRRRTQSSGQDGRPQEEPPAEEDLQQITVQVEPACSVEIVVPKEEDAGVEASPAGASAAVEVETASQASDEEGAPASQASDEEDAPA

Biological target: AP2 adaptor protein complex (endogenous)

Protein | transferrin endocytosis (MDCK stable line)
B1 | also had a stimulatory effect in MDCK cells, but to a greater extent than that of wild-type PIPKIγ661
B2 | had no appreciable effect on transferrin endocytosis
